Test results from PMC2096648 (Purinergic Signalling, 2006).

Legend:
[1] = molecular target: T1, human A2B adenosine receptors expressed in HEK-293 cell membranes (Homo sapiens, UniProt P29275); assay: Sodium shift and GTP shift competition experiments versus [^3H]PSB-298; format: binding; settings: GTP 1 mM; data not shown
T1 sequence (P29275 1-332): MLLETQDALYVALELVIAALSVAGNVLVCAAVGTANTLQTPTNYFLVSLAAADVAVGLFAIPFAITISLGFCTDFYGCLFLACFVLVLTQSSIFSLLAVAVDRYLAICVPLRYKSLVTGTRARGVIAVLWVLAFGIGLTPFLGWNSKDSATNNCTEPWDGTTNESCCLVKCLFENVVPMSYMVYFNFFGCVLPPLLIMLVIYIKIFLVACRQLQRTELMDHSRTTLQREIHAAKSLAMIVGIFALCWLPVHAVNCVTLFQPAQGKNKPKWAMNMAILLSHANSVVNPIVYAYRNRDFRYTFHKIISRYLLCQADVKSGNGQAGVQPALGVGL

[2] = molecular target: T2, recombinant human adenosine A2B receptors expressed in HEK-293 cell membranes (Homo sapiens, UniProt P29275); assay: Effect of salts and additives on specific binding of 1 nM [^3H]PSB-298; settings: for increase of specific binding of the radioligand: 1 nM [^3H]PSB-298
T2 sequence (P29275 1-332): T1 sequence (P29275 1-332)

[3] = test system: human adenosine A2B receptors; settings: 100 mM NaCl; cited from earlier work

SMILES	effect of GTP on competition curve [1]	increase of specific binding of the radioligand ([2]; 100 mM NaCl) [%]	change of specific binding of 1 nM [^3H]PSB-298 ([2]; 1 M NaCl)	increase of specific binding of the radioligand ([2]; up to 3 M NaCl) [%]	effect of NaCl on binding of [^3H]MRS1754 [3]
CCNC(=O)[C@H]1O[C@@H](n2cnc3c(N)ncnc32)[C@H](O)[C@@H]1O [NECA, 5′-N-ethylcarboxamidoadenosine]	no significant effect				
[Cl-].[Na+] [NaCl, sodium chloride]		245 ± 55	more than doubled	594 ± 116	had not shown any effect
